{
  "source": "patent US3975389A",
  "about": "“Caffeine derivatives” (priority 1973, dated 1976)",
  "assay": "survival / late mortality of guinea-pigs treated in the broncholitic activity test (48 hours, oral route)",
  "conditions": "guinea pig, in vivo",
  "data": [
    {"smiles": "Cn1c(=O)c2[nH]cnc2n(C)c1=O", "note": "[Aminophilline, reference compound]", "values": [
      {"measurement": "survival at 48 h", "setting": "50 mg/kg", "value": 84, "unit": "%"},
      {"measurement": "survival at 48 h", "setting": "75 mg/kg", "value": 84, "unit": "%"},
      {"measurement": "survival at 48 h", "setting": "100 mg/kg", "value": 50, "unit": "%"},
      {"measurement": "survival at 48 h", "setting": "150 mg/kg", "value": 10, "unit": "%"}
    ]}
  ]
}
